Test results published in US20220041538A1, “CA[…] ACID AND SALTS THEREOF” (EMERALD HEALTH PHARMACEUTICALS INC, priority 2018, published 2022).

Sequences of proteins named here, by UniProt entry; tags and fusion partners are left off. Residues count along the entry.
UniProt P37231, 238-505 limits assumed: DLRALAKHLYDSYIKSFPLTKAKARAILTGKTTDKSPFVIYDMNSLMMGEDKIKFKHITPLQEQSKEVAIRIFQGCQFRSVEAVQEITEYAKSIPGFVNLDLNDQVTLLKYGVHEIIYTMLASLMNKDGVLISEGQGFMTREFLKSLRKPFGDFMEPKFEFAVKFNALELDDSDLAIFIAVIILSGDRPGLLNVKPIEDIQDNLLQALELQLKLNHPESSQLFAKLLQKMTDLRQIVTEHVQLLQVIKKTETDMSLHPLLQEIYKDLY

Target: PPARγ (Homo sapiens, UniProt P37231)
Test: PolarScreen PPAR Competitor Assay (PPARγ binding, fluorescence polarization)

CCCCCC1=C(C(=O)O)C(=O)C(C/C=C(\C)CCC=C(C)C)=C(O)C1=O [I, cannabigerol quinone acid]
Relative affinity for PPARγ, percentage of polarization (compound concentration 0.01 ∝M, tested form: 2-(dimethylamino)ethanol salt): 95.7% | Relative affinity for PPARγ, percentage of polarization (compound concentration 0.01 ∝M, tested form: L-arginine salt): 99.0% | Relative affinity for PPARγ, percentage of polarization (compound concentration 0.01 ∝M, tested form: L-lysine salt): 95.2% | Relative affinity for PPARγ, percentage of polarization (compound concentration 0.01 ∝M, tested form: benzathine salt): 81.3% | Relative affinity for PPARγ, percentage of polarization (compound concentration 0.01 ∝M, tested form: calcium salt): 95.1% | Relative affinity for PPARγ, percentage of polarization (compound concentration 0.01 ∝M, tested form: dicyclohexylamine salt): 113.2% | Relative affinity for PPARγ, percentage of polarization (compound concentration 0.01 ∝M, tested form: ethylenediamine salt): 95.0% | Relative affinity for PPARγ, percentage of polarization (compound concentration 0.01 ∝M, tested form: meglumine salt): 95.4% | Relative affinity for PPARγ, percentage of polarization (compound concentration 0.01 ∝M, tested form: potassium salt): 99.3% | Relative affinity for PPARγ, percentage of polarization (compound concentration 0.01 ∝M, tested form: sodium salt): 99.6% | Relative affinity for PPARγ, percentage of polarization (compound concentration 0.01 ∝M, tested form: tromethamine salt): 95.9% | Relative affinity for PPARγ, percentage of polarization (compound concentration 0.05 ∝M, tested form: 2-(dimethylamino)ethanol salt): 94.0% | Relative affinity for PPARγ, percentage of polarization (compound concentration 0.05 ∝M, tested form: L-arginine salt): 95.9% | Relative affinity for PPARγ, percentage of polarization (compound concentration 0.05 ∝M, tested form: L-lysine salt): 94.3% | Relative affinity for PPARγ, percentage of polarization (compound concentration 0.05 ∝M, tested form: benzathine salt): 83.4% | Relative affinity for PPARγ, percentage of polarization (compound concentration 0.05 ∝M, tested form: calcium salt): 91.7% | Relative affinity for PPARγ, percentage of polarization (compound concentration 0.05 ∝M, tested form: dicyclohexylamine salt): 96.3% | Relative affinity for PPARγ, percentage of polarization (compound concentration 0.05 ∝M, tested form: ethylenediamine salt): 95.6% | Relative affinity for PPARγ, percentage of polarization (compound concentration 0.05 ∝M, tested form: meglumine salt): 94.2% | Relative affinity for PPARγ, percentage of polarization (compound concentration 0.05 ∝M, tested form: potassium salt): 99.1% | Relative affinity for PPARγ, percentage of polarization (compound concentration 0.05 ∝M, tested form: sodium salt): 101.6% | Relative affinity for PPARγ, percentage of polarization (compound concentration 0.05 ∝M, tested form: tromethamine salt): 98.8% | Relative affinity for PPARγ, percentage of polarization (compound concentration 0.1 ∝M, tested form: 2-(dimethylamino)ethanol salt): 93.6% | Relative affinity for PPARγ, percentage of polarization (compound concentration 0.1 ∝M, tested form: L-arginine salt): 92.8% | Relative affinity for PPARγ, percentage of polarization (compound concentration 0.1 ∝M, tested form: L-lysine salt): 93.3% | Relative affinity for PPARγ, percentage of polarization (compound concentration 0.1 ∝M, tested form: benzathine salt): 75.7% | Relative affinity for PPARγ, percentage of polarization (compound concentration 0.1 ∝M, tested form: calcium salt): 86.0% | Relative affinity for PPARγ, percentage of polarization (compound concentration 0.1 ∝M, tested form: dicyclohexylamine salt): 87.4% | Relative affinity for PPARγ, percentage of polarization (compound concentration 0.1 ∝M, tested form: ethylenediamine salt): 98.6% | Relative affinity for PPARγ, percentage of polarization (compound concentration 0.1 ∝M, tested form: meglumine salt): 94.9% | Relative affinity for PPARγ, percentage of polarization (compound concentration 0.1 ∝M, tested form: potassium salt): 97.9% | Relative affinity for PPARγ, percentage of polarization (compound concentration 0.1 ∝M, tested form: sodium salt): 101.6% | Relative affinity for PPARγ, percentage of polarization (compound concentration 0.1 ∝M, tested form: tromethamine salt): 96.1% | Relative affinity for PPARγ, percentage of polarization (compound concentration 0.5 ∝M, tested form: 2-(dimethylamino)ethanol salt): 77.4% | Relative affinity for PPARγ, percentage of polarization (compound concentration 0.5 ∝M, tested form: L-arginine salt): 68.3% | Relative affinity for PPARγ, percentage of polarization (compound concentration 0.5 ∝M, tested form: L-lysine salt): 94.7% | Relative affinity for PPARγ, percentage of polarization (compound concentration 0.5 ∝M, tested form: benzathine salt): 38.9% | Relative affinity for PPARγ, percentage of polarization (compound concentration 0.5 ∝M, tested form: calcium salt): 60.2% | Relative affinity for PPARγ, percentage of polarization (compound concentration 0.5 ∝M, tested form: dicyclohexylamine salt): 54.0% | Relative affinity for PPARγ, percentage of polarization (compound concentration 0.5 ∝M, tested form: ethylenediamine salt): 91.7% | Relative affinity for PPARγ, percentage of polarization (compound concentration 0.5 ∝M, tested form: meglumine salt): 88.3% | Relative affinity for PPARγ, percentage of polarization (compound concentration 0.5 ∝M, tested form: potassium salt): 90.9% | Relative affinity for PPARγ, percentage of polarization (compound concentration 0.5 ∝M, tested form: sodium salt): 90.9% | Relative affinity for PPARγ, percentage of polarization (compound concentration 0.5 ∝M, tested form: tromethamine salt): 80.5% | Relative affinity for PPARγ, percentage of polarization (compound concentration 1 ∝M, tested form: 2-(dimethylamino)ethanol salt): 57.9% | Relative affinity for PPARγ, percentage of polarization (compound concentration 1 ∝M, tested form: L-arginine salt): 44.3% | Relative affinity for PPARγ, percentage of polarization (compound concentration 1 ∝M, tested form: L-lysine salt): 92.3% | Relative affinity for PPARγ, percentage of polarization (compound concentration 1 ∝M, tested form: benzathine salt): 45.6% | Relative affinity for PPARγ, percentage of polarization (compound concentration 1 ∝M, tested form: calcium salt): 41.4% | Relative affinity for PPARγ, percentage of polarization (compound concentration 1 ∝M, tested form: dicyclohexylamine salt): 54.2% | Relative affinity for PPARγ, percentage of polarization (compound concentration 1 ∝M, tested form: ethylenediamine salt): 68.4% | Relative affinity for PPARγ, percentage of polarization (compound concentration 1 ∝M, tested form: meglumine salt): 73.1% | Relative affinity for PPARγ, percentage of polarization (compound concentration 1 ∝M, tested form: potassium salt): 74.3% | Relative affinity for PPARγ, percentage of polarization (compound concentration 1 ∝M, tested form: sodium salt): 76.7% | Relative affinity for PPARγ, percentage of polarization (compound concentration 1 ∝M, tested form: tromethamine salt): 73.0% | Relative affinity for PPARγ, percentage of polarization (compound concentration 5 ∝M, tested form: 2-(dimethylamino)ethanol salt): 19.3% | Relative affinity for PPARγ, percentage of polarization (compound concentration 5 ∝M, tested form: L-arginine salt): 16.3% | Relative affinity for PPARγ, percentage of polarization (compound concentration 5 ∝M, tested form: L-lysine salt): 76.5% | Relative affinity for PPARγ, percentage of polarization (compound concentration 5 ∝M, tested form: benzathine salt): 24.9% | Relative affinity for PPARγ, percentage of polarization (compound concentration 5 ∝M, tested form: dicyclohexylamine salt): 19.3% | Relative affinity for PPARγ, percentage of polarization (compound concentration 5 ∝M, tested form: ethylenediamine salt): 33.2% | Relative affinity for PPARγ, percentage of polarization (compound concentration 5 ∝M, tested form: meglumine salt): 37.2% | Relative affinity for PPARγ, percentage of polarization (compound concentration 5 ∝M, tested form: potassium salt): 33.1% | Relative affinity for PPARγ, percentage of polarization (compound concentration 5 ∝M, tested form: sodium salt): 37.5% | Relative affinity for PPARγ, percentage of polarization (compound concentration 5 ∝M, tested form: tromethamine salt): 34.9% | Relative affinity for PPARγ, percentage of polarization (compound concentration 10 ∝M, tested form: 2-(dimethylamino)ethanol salt): 15.9% | Relative affinity for PPARγ, percentage of polarization (compound concentration 10 ∝M, tested form: L-arginine salt): 14.1% | Relative affinity for PPARγ, percentage of polarization (compound concentration 10 ∝M, tested form: L-lysine salt): 6.9% | Relative affinity for PPARγ, percentage of polarization (compound concentration 10 ∝M, tested form: benzathine salt): 22.9% | Relative affinity for PPARγ, percentage of polarization (compound concentration 10 ∝M, tested form: calcium salt): 22.5% | Relative affinity for PPARγ, percentage of polarization (compound concentration 10 ∝M, tested form: dicyclohexylamine salt): 20.9% | Relative affinity for PPARγ, percentage of polarization (compound concentration 10 ∝M, tested form: meglumine salt): 20.6% | Relative affinity for PPARγ, percentage of polarization (compound concentration 10 ∝M, tested form: potassium salt): 19.0% | Relative affinity for PPARγ, percentage of polarization (compound concentration 10 ∝M, tested form: sodium salt): 21.7% | Relative affinity for PPARγ, percentage of polarization (compound concentration 10 ∝M, tested form: tromethamine salt): 23.2% | Relative affinity for PPARγ, percentage of polarization (compound concentration 25 ∝M, tested form: 2-(dimethylamino)ethanol salt): 17.2% | Relative affinity for PPARγ, percentage of polarization (compound concentration 25 ∝M, tested form: L-arginine salt): 17.8% | Relative affinity for PPARγ, percentage of polarization (compound concentration 25 ∝M, tested form: L-lysine salt): 27.4% | Relative affinity for PPARγ, percentage of polarization (compound concentration 25 ∝M, tested form: benzathine salt): 22.9% | Relative affinity for PPARγ, percentage of polarization (compound concentration 25 ∝M, tested form: calcium salt): 24.9% | Relative affinity for PPARγ, percentage of polarization (compound concentration 25 ∝M, tested form: dicyclohexylamine salt): 29.0% | Relative affinity for PPARγ, percentage of polarization (compound concentration 25 ∝M, tested form: ethylenediamine salt): 16.1% | Relative affinity for PPARγ, percentage of polarization (compound concentration 25 ∝M, tested form: meglumine salt): 15.3% | Relative affinity for PPARγ, percentage of polarization (compound concentration 25 ∝M, tested form: potassium salt): 16.7% | Relative affinity for PPARγ, percentage of polarization (compound concentration 25 ∝M, tested form: sodium salt): 17.2% | Relative affinity for PPARγ, percentage of polarization (compound concentration 25 ∝M, tested form: tromethamine salt): 26.1% | Relative affinity for PPARγ, percentage of polarization (compound concentration 50 ∝M, tested form: 2-(dimethylamino)ethanol salt): 23.6% | Relative affinity for PPARγ, percentage of polarization (compound concentration 50 ∝M, tested form: L-arginine salt): 22.1% | Relative affinity for PPARγ, percentage of polarization (compound concentration 50 ∝M, tested form: L-lysine salt): 15.8% | Relative affinity for PPARγ, percentage of polarization (compound concentration 50 ∝M, tested form: benzathine salt): 27.0% | Relative affinity for PPARγ, percentage of polarization (compound concentration 50 ∝M, tested form: calcium salt): 45.4% | Relative affinity for PPARγ, percentage of polarization (compound concentration 50 ∝M, tested form: dicyclohexylamine salt): 104.9% | Relative affinity for PPARγ, percentage of polarization (compound concentration 50 ∝M, tested form: ethylenediamine salt): 16.1% | Relative affinity for PPARγ, percentage of polarization (compound concentration 50 ∝M, tested form: meglumine salt): 13.7% | Relative affinity for PPARγ, percentage of polarization (compound concentration 50 ∝M, tested form: potassium salt): 19.0% | Relative affinity for PPARγ, percentage of polarization (compound concentration 50 ∝M, tested form: sodium salt): 19.1% | Relative affinity for PPARγ, percentage of polarization (compound concentration 50 ∝M, tested form: tromethamine salt): 30.9%
